The target in assay [1] is Myosin light chain kinase, smooth muscle (Homo sapiens, UniProt Q15746). Briefly: Inhibition of human myosin light chain kinase.
The target in assay [2] is Cyclin-dependent kinase 9 (Homo sapiens, UniProt P50750). Description: Inhibition of Cdk9.

By UniProt entry, the sequences of proteins in these tests, tags left out.
UniProt Q15746, whole entry: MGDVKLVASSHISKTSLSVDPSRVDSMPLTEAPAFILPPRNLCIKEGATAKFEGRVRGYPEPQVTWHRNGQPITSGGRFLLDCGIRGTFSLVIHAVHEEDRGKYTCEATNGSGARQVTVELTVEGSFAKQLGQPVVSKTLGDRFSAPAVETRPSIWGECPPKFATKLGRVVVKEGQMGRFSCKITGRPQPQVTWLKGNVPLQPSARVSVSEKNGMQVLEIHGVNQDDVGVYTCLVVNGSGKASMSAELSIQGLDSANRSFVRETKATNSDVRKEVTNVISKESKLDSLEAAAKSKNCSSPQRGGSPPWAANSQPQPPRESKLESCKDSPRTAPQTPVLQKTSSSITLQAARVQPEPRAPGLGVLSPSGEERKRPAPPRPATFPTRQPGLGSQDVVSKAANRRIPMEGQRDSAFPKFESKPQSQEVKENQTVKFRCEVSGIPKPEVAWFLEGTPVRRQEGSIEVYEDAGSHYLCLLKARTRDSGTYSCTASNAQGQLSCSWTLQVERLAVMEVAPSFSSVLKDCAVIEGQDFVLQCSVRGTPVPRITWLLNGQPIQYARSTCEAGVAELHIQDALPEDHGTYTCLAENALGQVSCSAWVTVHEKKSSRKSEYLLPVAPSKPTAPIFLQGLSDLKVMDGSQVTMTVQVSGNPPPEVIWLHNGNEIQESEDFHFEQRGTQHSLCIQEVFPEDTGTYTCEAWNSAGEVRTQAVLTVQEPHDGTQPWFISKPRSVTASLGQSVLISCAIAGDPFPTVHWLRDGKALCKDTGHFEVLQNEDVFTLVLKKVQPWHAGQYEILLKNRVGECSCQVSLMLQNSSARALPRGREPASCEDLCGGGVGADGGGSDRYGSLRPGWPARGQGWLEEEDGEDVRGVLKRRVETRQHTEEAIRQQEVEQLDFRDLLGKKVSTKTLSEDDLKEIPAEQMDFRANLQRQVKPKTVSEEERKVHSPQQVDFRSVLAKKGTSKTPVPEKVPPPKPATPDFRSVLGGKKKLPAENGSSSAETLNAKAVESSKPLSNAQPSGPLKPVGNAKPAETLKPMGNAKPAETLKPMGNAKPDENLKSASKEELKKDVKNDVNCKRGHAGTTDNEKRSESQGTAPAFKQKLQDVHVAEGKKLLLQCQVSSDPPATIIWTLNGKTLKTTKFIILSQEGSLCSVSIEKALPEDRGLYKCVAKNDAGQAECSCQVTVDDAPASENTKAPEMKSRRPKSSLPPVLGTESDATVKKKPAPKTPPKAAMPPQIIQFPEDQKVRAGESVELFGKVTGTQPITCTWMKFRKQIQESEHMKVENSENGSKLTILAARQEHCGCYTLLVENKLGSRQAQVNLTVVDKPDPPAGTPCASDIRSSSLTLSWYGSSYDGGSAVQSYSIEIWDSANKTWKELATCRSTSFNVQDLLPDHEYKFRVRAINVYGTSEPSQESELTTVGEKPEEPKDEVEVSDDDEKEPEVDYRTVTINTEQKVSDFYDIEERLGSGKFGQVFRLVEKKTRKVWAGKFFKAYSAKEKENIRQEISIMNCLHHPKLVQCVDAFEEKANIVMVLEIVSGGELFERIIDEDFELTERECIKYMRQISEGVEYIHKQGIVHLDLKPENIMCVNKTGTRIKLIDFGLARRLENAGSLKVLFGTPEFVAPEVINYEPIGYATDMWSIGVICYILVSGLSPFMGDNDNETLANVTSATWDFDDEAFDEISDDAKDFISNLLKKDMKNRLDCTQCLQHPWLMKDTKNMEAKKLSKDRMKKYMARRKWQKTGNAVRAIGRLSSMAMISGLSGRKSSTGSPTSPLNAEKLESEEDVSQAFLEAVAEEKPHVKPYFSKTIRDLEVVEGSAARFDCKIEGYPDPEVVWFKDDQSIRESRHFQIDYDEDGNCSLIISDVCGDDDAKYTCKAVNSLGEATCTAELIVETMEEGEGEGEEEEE
UniProt P50750, whole entry: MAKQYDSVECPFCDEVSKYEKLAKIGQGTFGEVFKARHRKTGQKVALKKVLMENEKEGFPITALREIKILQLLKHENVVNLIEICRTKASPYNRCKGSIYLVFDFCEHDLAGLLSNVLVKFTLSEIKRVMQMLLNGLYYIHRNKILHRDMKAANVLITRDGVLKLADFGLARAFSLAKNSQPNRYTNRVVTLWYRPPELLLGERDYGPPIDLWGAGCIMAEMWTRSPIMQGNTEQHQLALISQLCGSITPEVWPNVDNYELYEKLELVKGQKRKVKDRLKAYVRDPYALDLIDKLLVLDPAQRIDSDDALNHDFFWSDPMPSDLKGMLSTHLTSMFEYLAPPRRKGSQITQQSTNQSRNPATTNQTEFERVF

The structures appear in SMILES notation.

In turn, `COC(=O)[C@]1(O)C[C@@H]2O[C@@]1(C)n1c3ccccc3c3c4c(c5c6ccccc6n2c5c31)C(=O)NC4` (single isomer, unassigned) came in with an inhibition constant (Ki) in assay [1] of 17 nM.

As for `CC(C)c1nn(-c2c(Cl)cccc2Cl)c2nc(Cc3ccc(OCCO)cc3)[nH]c(=O)c12`, the IC50 in assay [2] worked out at 9 nM.

Broadly, the Ki is a dissociation constant, usually derived from enzyme kinetics or from competition with a known ligand. Read a low Ki as higher affinity. One may read the IC50 as the point on the concentration scale where inhibition reaches its midpoint. The low end stands for greater potency in that assay, the high end for weaker potency in that assay.

The values above are taken from ChEMBL document CHEMBL1145498, “A systematic interaction map of validated kinase inhibitors with Ser/Thr kinases” (Proc Natl Acad Sci U S A, 2007).
